Data on one compound can be found in patent US20230115176A1 (Ra Pharmaceuticals, Inc., priority 2019, published 2023).

Protein sequences, listed by entry. Tags and fused reporters are not part of them. Residues count along the entry.
UniProt P01031, 19-1676 limits assumed: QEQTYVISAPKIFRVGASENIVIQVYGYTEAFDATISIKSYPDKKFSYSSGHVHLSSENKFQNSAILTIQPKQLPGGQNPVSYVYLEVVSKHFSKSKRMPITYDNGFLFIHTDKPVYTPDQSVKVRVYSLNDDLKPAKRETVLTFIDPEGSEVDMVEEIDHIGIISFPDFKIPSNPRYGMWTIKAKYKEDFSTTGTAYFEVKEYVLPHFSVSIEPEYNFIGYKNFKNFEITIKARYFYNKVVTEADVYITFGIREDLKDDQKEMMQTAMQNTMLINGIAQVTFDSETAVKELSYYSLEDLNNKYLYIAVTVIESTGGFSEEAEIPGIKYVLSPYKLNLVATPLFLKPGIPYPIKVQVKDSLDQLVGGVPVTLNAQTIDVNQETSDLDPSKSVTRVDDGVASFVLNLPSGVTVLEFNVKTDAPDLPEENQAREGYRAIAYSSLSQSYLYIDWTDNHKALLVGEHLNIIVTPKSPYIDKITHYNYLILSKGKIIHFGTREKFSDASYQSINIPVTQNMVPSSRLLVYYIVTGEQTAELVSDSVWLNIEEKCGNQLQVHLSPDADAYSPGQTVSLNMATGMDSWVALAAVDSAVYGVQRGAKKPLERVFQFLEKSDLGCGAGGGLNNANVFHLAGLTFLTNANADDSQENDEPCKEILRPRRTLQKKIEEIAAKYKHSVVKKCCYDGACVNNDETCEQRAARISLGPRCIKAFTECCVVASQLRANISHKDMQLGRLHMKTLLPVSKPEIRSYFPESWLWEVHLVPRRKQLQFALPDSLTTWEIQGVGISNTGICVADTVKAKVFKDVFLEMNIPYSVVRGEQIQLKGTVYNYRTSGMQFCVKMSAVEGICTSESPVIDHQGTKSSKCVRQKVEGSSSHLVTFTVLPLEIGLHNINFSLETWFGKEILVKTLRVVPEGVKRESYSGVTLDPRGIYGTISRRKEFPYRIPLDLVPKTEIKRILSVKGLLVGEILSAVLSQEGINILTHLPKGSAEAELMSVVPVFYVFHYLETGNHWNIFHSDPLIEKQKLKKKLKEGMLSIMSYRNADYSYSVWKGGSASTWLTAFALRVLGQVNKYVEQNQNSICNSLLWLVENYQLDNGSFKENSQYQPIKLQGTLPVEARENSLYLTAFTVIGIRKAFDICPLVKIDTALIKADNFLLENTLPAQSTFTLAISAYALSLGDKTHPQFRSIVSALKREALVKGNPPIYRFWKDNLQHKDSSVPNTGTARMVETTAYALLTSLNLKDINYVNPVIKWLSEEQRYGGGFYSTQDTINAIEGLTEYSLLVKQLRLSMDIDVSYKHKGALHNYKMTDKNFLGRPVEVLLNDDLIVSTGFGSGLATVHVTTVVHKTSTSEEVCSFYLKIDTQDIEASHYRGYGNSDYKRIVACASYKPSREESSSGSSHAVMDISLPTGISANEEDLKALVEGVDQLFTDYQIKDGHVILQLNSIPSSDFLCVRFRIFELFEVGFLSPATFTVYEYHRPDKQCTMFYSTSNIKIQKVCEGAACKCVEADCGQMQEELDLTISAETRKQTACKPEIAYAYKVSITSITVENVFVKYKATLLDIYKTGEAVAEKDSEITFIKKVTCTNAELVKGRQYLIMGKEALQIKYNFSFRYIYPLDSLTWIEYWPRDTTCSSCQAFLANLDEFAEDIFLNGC

The assay has as its target Human C5 (Homo sapiens, UniProt P01031). Nature of the assay: Hemolysis assay, luminescent, classical complement pathway (Example 4, Table 7). The format is cell-based. To be noted: sheep EA cells, […] C5-depleted human serum, 0.5 nM human C5, luminescence readout.

One may read the IC50 as the concentration that inhibits the measured activity by half. Consider `C=CC(=O)NCc1cc(OC)c(OCCCCC)cc1NC(=O)N1CCC[C@@H]1c1ccccc1Cl`, for which the IC50 is 137 nM.
